Results published in patent publication US12091425B2 (AMGEN INC., priority 2016, dated 2024).
Where two headings read alike, the source gives them in different places.

By UniProt entry, the sequences of proteins in these tests, tags left out. Residues count along the entry.
UniProt Q07820, 171-327 limits assumed: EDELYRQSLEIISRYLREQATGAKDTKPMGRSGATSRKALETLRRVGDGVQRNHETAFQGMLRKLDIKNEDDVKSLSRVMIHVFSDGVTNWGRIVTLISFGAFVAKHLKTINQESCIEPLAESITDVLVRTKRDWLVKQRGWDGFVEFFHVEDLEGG

How the values were obtained:
[1] = molecular target: Mcl-1/Bim interaction, recombinant human Mcl-1 (171-327) (Homo sapiens, UniProt Q07820); assay: Cell free Mcl-1: Bim Affinity Assay (Mcl-1 HTRF); format: binding; conditions: read-out: Mcl-1 HTRF
[2] = system: OPM-2 human multiple myeloma cell line; assay: Cell Viability Assay (OPM-2 10 FBS); format: cell-based
[3] = cell free Mcl-1:Bim TR-FRET, recombinant human Mcl-1 (171-327)
[4] = read-out: OPM-2 10% FBS, OPM-2 cells, 16 h, CellTiter-Glo
[5] = TR-FRET, 0.1 nM Mcl-1 (171-327), 0.05 nM biotin-Bim (51-76)

| Structure (SMILES) | IC50 [2, 4] [nM] | IC50 [1, 5] [nM] | further results |
| --- | --- | --- | --- |
| CC1/C=C\C[C@H](O)[C@@H]2CC[C@H]2CN2C[C@@]3(CCCc4cc(Cl)ccc43)COc3ccc(cc32)C(=O)NS(=O)(=O)C1CC1CC1 (some centres unmarked) | 2250 |  | IC50 [1, 3]: 3.71 nM |
| CC1CC(=O)NC[C@@H]2CC[C@H]2CN2C[C@@]3(CCCc4cc(Cl)ccc43)COc3ccc(cc32)C(=O)NS(=O)(=O)C1C (some centres unmarked) |  | 5.38 |  |
| CC1CC=C[C@H](O)[C@@H]2CC[C@H]2CN2C[C@@]3(CCCc4cc(Cl)ccc43)COc3ccc(cc32)C(=O)NS(=O)(=O)C1CC1CCO1 (some centres unmarked) | 419 | 0.416 |  |
| CCC1C(OC)C/C=C/[C@H](OCCN2CCOCC2)[C@@H]2CC[C@H]2CN2C[C@@]3(CCCc4cc(Cl)ccc43)COc3ccc(cc32)C(=O)NS1(=O)=O (some centres unmarked) | 56.4 | 0.47 |  |
| CC[C@@H]1CCC(OCCOC)/C=C/[C@@H]2CC[C@H]2CN2C[C@@]3(CCCc4cc(Cl)ccc43)COc3ccc(cc32)C(=O)NS1(=O)=O (some centres unmarked) | 3870 | 3.58 |  |
| COCCOCCC1C(C)C/C=C\[C@H](O)[C@@H]2CC[C@H]2CN2C[C@@]3(CCCc4cc(Cl)ccc43)COc3ccc(cc32)C(=O)NS1(=O)=O (some centres unmarked) | 99.6 | 0.0856 |  |
| CO[C@H]1/C=C/CCC(C(O)c2nccs2)S(=O)(=O)NC(=O)c2ccc3c(c2)N(C[C@@H]2CC[C@H]21)C[C@@]1(CCCc2cc(Cl)ccc21)CO3 (some centres unmarked) | 13400 |  | IC50 [1, 3]: 7.67 nM |
| C[C@@H]1[C@@H](C)CC(CC(=O)O)/C=C/[C@@H]2CC[C@H]2CN2C[C@@]3(CCCc4cc(Cl)ccc43)COc3ccc(cc32)C(=O)NS1(=O)=O (some centres unmarked) | 3340 | 0.0514 |  |
| C[C@@H]1[C@@H](C)CC(CC(=O)O)CC[C@@H]2CC[C@H]2CN2C[C@@]3(CCCc4cc(Cl)ccc43)COc3ccc(cc32)C(=O)NS1(=O)=O (some centres unmarked) | 2280 | 0.103 |  |
| C[C@H]1CC=C[C@H](OCCN2CCOCC2)[C@@H]2CC[C@H]2CN2C[C@@]3(CCCc4cc(Cl)ccc43)COc3ccc(cc32)C(=O)NS(=O)(=O)C1CC(F)(F)F (some centres unmarked) | 237 |  | IC50 [1, 3]: 1.37 nM |
| O=C1NS(=O)(=O)C(CN2CCOCC2)CC/C=C/[C@H](O)[C@@H]2CC[C@H]2CN2C[C@@]3(CCCc4cc(Cl)ccc43)COc3ccc1cc32 (some centres unmarked) | 556 | 0.276 |  |
| O=C1NS(=O)(=O)C(CN2CCOCC2)CC/C=C\[C@H](O)[C@@H]2CC[C@H]2CN2C[C@@]3(CCCc4cc(Cl)ccc43)COc3ccc1cc32 (some centres unmarked) | 994 | 0.59 |  |
| O=C1NS(=O)(=O)C(Cc2ccccn2)CC/C=C/[C@H](O)[C@@H]2CC[C@H]2CN2C[C@@]3(CCCc4cc(Cl)ccc43)COc3ccc1cc32 (some centres unmarked) | 709 | 0.566 |  |
| O=C1NS(=O)(=O)C2CC2CCC[C@H](O)[C@@H]2CC[C@H]2CN2C[C@@]3(CCCc4cc(Cl)ccc43)COc3ccc1cc32 (some centres unmarked) |  |  | IC50 [1, 3]: 11.5 nM |
| O=C1NS(=O)(=O)CCCCCSC2CCC2CN2C[C@@]3(CCCc4cc(Cl)ccc43)COc3ccc1cc32 (some centres unmarked) |  | 5.72 |  |
| CC12C/C=C/[C@H](O)[C@@H]3CC[C@H]3CN3C[C@@]4(CCCc5cc(Cl)ccc54)COc4ccc(cc43)C(=O)NS(=O)(=O)C1CCC2 (single isomer, unassigned) | 5730 | 7.07 |  |
| CC12CCC1CN1C[C@@]3(CCCc4cc(Cl)ccc43)COc3ccc(cc31)C(=O)NS(=O)(=O)CCCCCC2O (single isomer, unassigned) |  | 28.7 |  |
| CC1C(O)C/C=C/C[C@@H]2CC[C@H]2CN2C[C@@]3(CCCc4cc(Cl)ccc43)COc3ccc(cc32)C(=O)NS1(=O)=O (single isomer, unassigned) |  |  | IC50 [1, 3]: 10.4 nM |
| CC1CC(O)[C@@H]2CC[C@H]2CN2C[C@@]3(CCCc4cc(Cl)ccc43)COc3ccc(cc32)C(=O)NS(=O)(=O)[C@H](C)[C@@H](C)C1 (single isomer, unassigned) | 3340 |  |  |
| CC1COCCC(O)[C@@H]2CC[C@H]2CN2C[C@@]3(CCCc4cc(Cl)ccc43)COc3ccc(cc32)C(=O)NS1(=O)=O (single isomer, unassigned) |  |  | IC50 [1, 3]: 2.75 nM |
| CCC1/C=C/C[C@H](O)[C@@H]2CC[C@H]2CN2C[C@@]3(CCCc4cc(Cl)ccc43)COc3ccc(cc32)C(=O)NS1(=O)=O (single isomer, unassigned) |  |  | IC50 [1, 3]: 6.55 nM |
| CCC1C(C)C(C)/C=C/[C@H](OC)[C@@H]2CC[C@H]2CN2C[C@@]3(CCCc4cc(Cl)ccc43)COc3ccc(cc32)C(=O)NS1(=O)=O (single isomer, unassigned) |  |  | IC50 ([2]; read-out: OPM-2 10% FBS, OPM-2 cells, 16 h incubation, CellTiter-Glo): 628 nM |
| COC(=O)C1CCN(C(=O)C2CCC=C[C@H](O)[C@@H]3CC[C@H]3CN3C[C@@]4(CCCc5cc(Cl)ccc54)COc4ccc(cc43)C(=O)NS2(=O)=O)CC1 (single isomer, unassigned) |  | 0.423 |  |
| COC1C/C=C/[C@H](O)[C@@H]2CC[C@H]2CN2C[C@@]3(CCCc4cc(Cl)ccc43)COc3ccc(cc32)C(=O)NS(=O)(=O)C1C (single isomer, unassigned) | 338 | 0.22 |  |

| Structure (SMILES) | IC50 [2, 4] [nM] | IC50 [1, 5] [nM] | further results |
| --- | --- | --- | --- |
| COC1C2=CCC(CC2)CS(=O)(=O)NC(=O)c2ccc3c(c2)N(C[C@@H]2CC[C@@H]12)C[C@@]1(CCCc2cc(Cl)ccc21)CO3 (single isomer, unassigned) | 15200 | 20.2 |  |
| COC1C2CCCC(C2)S(=O)(=O)NC(=O)c2ccc3c(c2)N(C[C@@H]2CC[C@@H]12)C[C@@]1(CCCc2cc(Cl)ccc21)CO3 (single isomer, unassigned) |  | 42.1 |  |
| COCC1(C)C/C=C/[C@H](O)[C@@H]2CC[C@H]2CN2C[C@@]3(CCCc4cc(Cl)ccc43)COc3ccc(cc32)C(=O)NS1(=O)=O (single isomer, unassigned) |  |  | IC50 [1, 3]: 2.94 nM |
| COCCO[C@H]1/C=C/CC(C)C(CC2CC2)S(=O)(=O)NC(=O)c2ccc3c(c2)N(C[C@@H]2CC[C@H]21)C[C@@]1(CCCc2cc(Cl)ccc21)CO3 (single isomer, unassigned) | 484 | 1.05 |  |
| COC[C@H](CC1[C@@H](C)C/C=C/[C@H](O)[C@@H]2CC[C@H]2CN2C[C@@]3(CCCc4cc(Cl)ccc43)COc3ccc(cc32)C(=O)NS1(=O)=O)OC(=O)c1ccccc1 (single isomer, unassigned) |  |  | IC50 [1, 3]: 2.06 nM |
| CO[C@H]1/C=C/C(CO)CC(C)S(=O)(=O)NC(=O)c2ccc3c(c2)N(C[C@@H]2CC[C@H]21)C[C@@]1(CCCc2cc(Cl)ccc21)CO3 (single isomer, unassigned) |  | 5.79 |  |
| CO[C@H]1/C=C/CCC(C(=O)N2CCN(S(=O)(=O)N(C)C)CC2)S(=O)(=O)NC(=O)c2ccc3c(c2)N(C[C@@H]2CC[C@H]21)C[C@@]1(CCCc2cc(Cl)ccc21)CO3 (single isomer, unassigned) | 773 | 0.716 |  |
| C[C@@H]1C/C=C/C(O)C2(C)CCC2CN2C[C@@]3(CCCc4cc(Cl)ccc43)COc3ccc(cc32)C(=O)NS1(=O)=O (single isomer, unassigned) |  | 8.64 |  |
| C[C@@H]1[C@@H](C)CC(N(C)CC(=O)O)CC(O)[C@@H]2CC[C@H]2CN2C[C@@]3(CCCc4cc(Cl)ccc43)COc3ccc(cc32)C(=O)NS1(=O)=O (single isomer, unassigned) | 280 | 0.224 |  |
| O=C1NS(=O)(=O)C/C=C\C2(O)CCOC(C2)[C@@H]2CC[C@H]2CN2C[C@@]3(CCCc4cc(Cl)ccc43)COc3ccc1cc32 (single isomer, unassigned) |  |  | IC50 [1, 3]: 1.99 nM |
| O=C1NS(=O)(=O)C/C=C\CC(O)C[C@@H]2CC[C@H]2CN2C[C@@]3(CCCc4cc(Cl)ccc43)COc3ccc1cc32 (single isomer, unassigned) |  |  | IC50 [1, 3]: 8.08 nM |
| CC[C@@H]1CC/C=C/C(O)C2(C)CCC2CN2C[C@@]3(CCCc4cc(Cl)ccc43)COc3ccc(cc32)C(=O)NS1(=O)=O (single isomer, unassigned) [Example 119] |  | 24.4 |  |
| CC[C@@H]1CC/C=C/C(O)C2(C)CCC2CN2C[C@@]3(CCCc4cc(Cl)ccc43)COc3ccc(cc32)C(=O)NS1(=O)=O (single isomer, unassigned) [Example 120] |  | 0.927 |  |
| O=C1NS(=O)(=O)C(CC2CC2)CCC=C[C@H](O)[C@@H]2CC[C@H]2CN2C[C@@]3(CCCc4cc(Cl)ccc43)COc3ccc1cc32 (single isomer, unassigned) [Example 157] | 480 |  |  |
| C/C1=C\C(O)[C@@H]2CC[C@H]2CN2C[C@@]3(CCCc4cc(Cl)ccc43)COc3ccc(cc32)C(=O)NS(=O)(=O)CCC1 (single isomer, unassigned) [Example 239] | 3820 |  |  |
| C[C@@H]1[C@@H](C)CC(N(C)C)CC(O)[C@@H]2CC[C@H]2CN2C[C@@]3(CCCc4cc(Cl)ccc43)COc3ccc(cc32)C(=O)NS1(=O)=O (single isomer, unassigned) [Example 249] |  | 28.4 |  |
| CC1CC[C@@H](C)S(=O)(=O)NC(=O)c2ccc3c(c2)N(C[C@@H]2CC[C@H]2C(O)C1)C[C@@]1(CCCc2cc(Cl)ccc21)CO3 (single isomer, unassigned) [Example 261] |  | 33.9 |  |
| CC1CC[C@@H](C)S(=O)(=O)NC(=O)c2ccc3c(c2)N(C[C@@H]2CC[C@H]2C(O)C1)C[C@@]1(CCCc2cc(Cl)ccc21)CO3 (single isomer, unassigned) [Example 263] |  | 8.42 |  |
| CC1CC[C@H](C)S(=O)(=O)NC(=O)c2ccc3c(c2)N(C[C@@H]2CC[C@H]2C(O)C1)C[C@@]1(CCCc2cc(Cl)ccc21)CO3 (single isomer, unassigned) [Example 266] | 1070 |  |  |
| O=C1NS(=O)(=O)CC2CC2/C=C/[C@H](O)[C@@H]2CC[C@H]2CN2C[C@@]3(CCCc4cc(Cl)ccc43)COc3ccc1cc32 (single isomer, unassigned) [Example 801] |  |  | IC50 [1, 3]: 1.93 nM |
| O=C1NS(=O)(=O)CCOC2CCOC(C2)[C@@H]2CC[C@H]2CN2C[C@@]3(CCCc4cc(Cl)ccc43)COc3ccc1cc32 (single isomer, unassigned) [Example 838] | 1220 |  |  |
| O=C1NS(=O)(=O)C2COCC2C/C=C/[C@H](O)[C@@H]2CC[C@H]2CN2C[C@@]3(CCCc4cc(Cl)ccc43)COc3ccc1cc32 (single isomer, unassigned) [Example 1028] |  | 3.48 |  |
| O=C1NS(=O)(=O)C2COCC2C/C=C/[C@H](O)[C@@H]2CC[C@H]2CN2C[C@@]3(CCCc4cc(Cl)ccc43)COc3ccc1cc32 (single isomer, unassigned) [Example 1031] |  | 6.58 |  |
